Experiments:
Format in all cases: cell-based, Oocyte
[1] = molecular target: Glutamate receptor ionotropic, NMDA 1 (Homo sapiens, UniProt Q05586+Q12879); assay: Concentration required for 50% Inhibition of responses at cloned NR1A/2A NMDA expressed in Xenopus oocytes
[2] = molecular target: Glutamate receptor ionotropic, NMDA 1 (Homo sapiens, UniProt Q05586); assay: Concentration required for 50% Inhibition of responses at cloned NR1A/2AB NMDA expressed in Xenopus oocytes
[3] = molecular target: Glutamate receptor ionotropic, NMDA 1 (Homo sapiens, UniProt Q05586+Q14957); assay: Concentration required for 50% Inhibition of responses at cloned NR1A/2C NMDA expressed in Xenopus oocytes

By UniProt entry, the sequences of proteins in these tests, tags left out. Where a name states a change or a piece, a line headed by the entry shows the natural chain unless it says otherwise.
UniProt Q14957: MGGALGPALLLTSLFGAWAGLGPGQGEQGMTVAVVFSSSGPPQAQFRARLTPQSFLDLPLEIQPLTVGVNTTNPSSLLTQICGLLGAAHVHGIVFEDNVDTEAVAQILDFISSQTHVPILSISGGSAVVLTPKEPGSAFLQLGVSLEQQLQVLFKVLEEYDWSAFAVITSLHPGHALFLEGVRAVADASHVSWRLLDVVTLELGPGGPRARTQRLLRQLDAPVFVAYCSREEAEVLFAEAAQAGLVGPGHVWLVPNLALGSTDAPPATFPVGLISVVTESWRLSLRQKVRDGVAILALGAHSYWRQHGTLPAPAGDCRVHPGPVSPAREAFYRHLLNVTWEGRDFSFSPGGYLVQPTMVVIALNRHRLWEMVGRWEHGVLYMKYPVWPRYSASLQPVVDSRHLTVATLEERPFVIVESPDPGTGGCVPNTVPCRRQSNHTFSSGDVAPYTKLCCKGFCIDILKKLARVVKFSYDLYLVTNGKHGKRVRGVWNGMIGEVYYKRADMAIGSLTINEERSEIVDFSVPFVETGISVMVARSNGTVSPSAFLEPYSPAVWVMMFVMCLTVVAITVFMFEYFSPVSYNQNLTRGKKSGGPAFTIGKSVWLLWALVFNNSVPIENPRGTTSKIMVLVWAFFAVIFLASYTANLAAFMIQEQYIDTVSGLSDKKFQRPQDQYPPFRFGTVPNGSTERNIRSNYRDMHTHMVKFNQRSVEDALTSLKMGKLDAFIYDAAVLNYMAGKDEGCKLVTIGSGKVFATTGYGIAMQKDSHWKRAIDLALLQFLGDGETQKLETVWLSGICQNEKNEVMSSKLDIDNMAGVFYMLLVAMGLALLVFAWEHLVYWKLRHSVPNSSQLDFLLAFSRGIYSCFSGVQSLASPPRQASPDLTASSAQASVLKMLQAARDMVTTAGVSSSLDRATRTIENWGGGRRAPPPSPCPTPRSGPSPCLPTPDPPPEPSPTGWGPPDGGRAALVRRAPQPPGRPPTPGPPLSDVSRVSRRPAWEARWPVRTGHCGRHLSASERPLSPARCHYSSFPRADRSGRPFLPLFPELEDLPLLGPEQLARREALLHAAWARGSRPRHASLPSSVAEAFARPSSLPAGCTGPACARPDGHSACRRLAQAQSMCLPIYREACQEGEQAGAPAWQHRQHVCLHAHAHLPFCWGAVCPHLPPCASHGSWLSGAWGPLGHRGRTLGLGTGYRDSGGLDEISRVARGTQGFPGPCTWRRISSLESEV

## O=c1[nH]c2ccc(C#CCN3CCC(Cc4ccccc4)CC3)cc2[nH]1
[1]
  IC50: 35 µM
[2]
  IC50: 0.0053 µM
[3]
  IC50: > 100 µM
